Screening results as filed in PubChem BioAssay.
An excerpt weighted towards active compounds, which were near 4.2% of everything screened.
ALR H2O2 inh – inhibitors of human sulfhydryl oxidase ALR | 290,000 compounds, 3.8% hits | AID 485317 | inhibition, % (test concentration not listed) | P55789 | purified ALR, DTT oxidation, H2O2 HRP-luminol luminescence;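 active = mean and each replicate at 75% or more; inconclusive = only one of the two met; inactive = neither met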;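 also: stock transfer was 7.5 nL into about 7.5 µL; 0% = neutral wells and 100% = wells with inactivated enzyme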
HDAC3 inh – human HDAC3 inhibition; O15379; AID 2718; hit rate 0.15% among 320,000; recombinant HDAC3, fluorogenic peptide/trypsin coupled, fluorescence; inhibition, % at 8.3 µM; in the data active = inhibition above about 26%, passing the limit was not always enough; inconclusive = no clear call, values can overlap the other calls
UUG fidelity – yeast start codon fidelity modulation. S. cerevisiae UUG-firefly luciferase reporter, luminescence/redox ratio. activity score, % at 18.7 µM. 0.13% of 350,000 active;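 active means replicate mean at a twofold rise or more, about +100% in these data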;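 further: firefly luciferase made from a UUG start codon reports start codon fidelity; reporter light over untreated wells divided by growth signal over untreated wells; some hits fall short of that in this replicate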
NALP1 inh – NALP1 inhibition; S. cerevisiae NALP1/ASC/caspase-1 growth, X-gal OD620, 72 h; inhibition, % at 10 µM; hit rate 0.61% among 280,000; AID 2071; in the data active = inhibition mostly above about 24%, no sharp cut-off; inactive = mostly below about 32%
MC4R ag barr – human MC4R agonism via beta-arrestin; hit rate 0.98% among 360,000; activation, % at 8.9 µM; U2OS MC4R beta-arrestin complementation, luminescence; percent of melanotan II response, DMSO zero; P32245;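 active = activation above a per-plate cutoff, the mean activation of sample wells on that plate plus 3 SD, cut at about 8% in these data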
MC4R antagonist – antagonists of human melanocortin 4 receptor (MC4R). P32245. MC4R-expressing cells, MTII-stimulated cAMP, LANCE TR-FRET. inhibition, % at 6.5 µM. hit rate 0.48% among 360,000;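 active = inhibition above its plate's cutoff, the mean of tested wells on that plate plus 3 SD, cut at about 29% in these data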;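 note: 0% = Melanotan II alone and 100% = Melanotan II plus saturating MCL0020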
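Material – human MC4R-expressing U2OS cells · Repeats – no replicates · Detection – TR-FRET with Eu-cAMP and labeled anti-cAMP, 671 nm · Times – compound 30 min, challenge 1 h, detection 1 h · Compound – single nominal compound dose of 6.5 µM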
An asterisk follows results filed as active; ? = inconclusive; nt = no result.

The line under a structure holds: MC4R antagonist, ALR H2O2 inh, MC4R ag barr, HDAC3 inh, UUG fidelity, NALP1 inh
1	C[C@H]1CN([C@@H](C)CO)C(=O)c2cccc(NS(=O)(=O)c3ccc(Cl)cc3)c2O[C@@H]1CN(C)Cc1ccccc1
    nt, nt, nt, nt, 7, nt
2	C[C@@H]1CN([C@H](C)CO)C(=O)c2cc(-c3ccncc3)cnc2O[C@@H]1CN(C)C(=O)c1ccncc1
    nt, nt, nt, nt, -9, nt
3	O=C(CN1C(=O)NC2(CCCc3ccccc32)C1=O)NCc1ccco1 (stereo not given)
    -2, -6, -1, 2, nt, 7
4	CN(C)C(CNC(=O)CN1C(=O)NC2(CCc3ccccc32)C1=O)c1ccco1 (stereo not given)
    3, 100*, 0, 5, -19, 22
5	COc1ccc(Cl)cc1C(=O)Nc1nc2ccccc2[nH]1
    5, 0, -1, -20, -72, 38*
6	O=C(O)Cn1cc(/C=C2/NC(=O)N(c3ccc(Cl)cc3)C2=O)c2ccccc21
    1, 92*, 1, 7, 5, 14
7	O=C(O)Cn1cc(/C=c2/sc3nc4ccccc4n3c2=O)c2ccccc21
    10, 99*, -2, 3, nt, 0
8	COc1ccc(S(=O)(=O)n2nc(OC(C)=O)cc2N)cc1
    10, 98*, 2, 2, -17, 1
9	COc1cccc(C(=O)Oc2cc(N)n(S(=O)(=O)c3ccc(C)cc3)n2)c1OC
    -3, -3, 1, 53*, -13, 0
10	C[C@@H]1CN([C@@H](C)CO)C(=O)c2cc(NC(=O)Nc3ccc(C(F)(F)F)cc3)ccc2O[C@@H]1CN(C)C
    nt, nt, nt, nt, 12, nt

Some of the entries so far, with values ahead of the structure:
no.	MC4R antagonist	ALR H2O2 inh	MC4R ag barr	HDAC3 inh	UUG fidelity	NALP1 inh	Molecule
6	1	92*	1	7	5	14	O=C(O)Cn1cc(/C=C2/NC(=O)N(c3ccc(Cl)cc3)C2=O)c2ccccc21
7	10	99*	-2	3	nt	0	O=C(O)Cn1cc(/C=c2/sc3nc4ccccc4n3c2=O)c2ccccc21

Later entries.
The line under a structure holds: MC4R antagonist, ALR H2O2 inh, MC4R ag barr, HDAC3 inh, UUG fidelity, NALP1 inh
11	CC(=O)NCc1ccc(C(=O)CSc2nnc(C3CC3)n2C2CC2)cc1
    -8, 78*, -4, -3, -3, nt
12	O=C(CSc1nnc(C2CC2)n1C1CC1)c1ccc(F)cc1
    8, ?, 0, -4, -33, nt
13	Cc1c(C(=O)O)cccc1-c1ccc(/C=N/Nc2ccc(Br)cc2)o1
    6, 100*, -4, -2, -18, 22
14	C=CCn1c(-c2ccc(OC)cc2)csc1=Nc1c(C)n(C)n(-c2ccccc2)c1=O
    -2, 67, -3, 3, -1, 1
15	Cc1csc(=Nc2c(C)n(C)n(-c3ccccc3)c2=O)n1Cc1ccccc1
    19, 97*, 3, -2, 5, -2
16	Cc1cc(C(=O)OCC(=O)Nc2nc(-c3ccccc3)cs2)c(C)o1
    13, -12, 8.5*, 5, -21, 5
17	O=C(CS(=O)(=O)c1ccccc1)Nc1nc(-c2ccccc2)cs1
    3, 99*, -3, 11, 5, 28
18	CCS(=O)(=O)Nc1ccc2c(c1)C(=O)N(C)C[C@H](OC)[C@H](C)CN(C(=O)C1CC1)[C@H](C)CO2
    nt, nt, nt, nt, -6, nt
19	CCS(=O)(=O)N[C@H]1CC[C@H](CC(=O)Nc2ccc(-c3ccccc3)cc2)O[C@@H]1CO
    nt, nt, nt, nt, -11, nt
20	COC(=O)c1sccc1NC(=O)c1cc(C)on1
    1, 96*, 0, -2, -14, nt

Sorted by number of heavy atoms (low to high): some entries from above
The line under a structure holds: MC4R antagonist, ALR H2O2 inh, MC4R ag barr, HDAC3 inh, UUG fidelity, NALP1 inh
16	Cc1cc(C(=O)OCC(=O)Nc2nc(-c3ccccc3)cs2)c(C)o1
    13, -12, 8.5*, 5, -21, 5
15	Cc1csc(=Nc2c(C)n(C)n(-c3ccccc3)c2=O)n1Cc1ccccc1
    19, 97*, 3, -2, 5, -2
18	CCS(=O)(=O)Nc1ccc2c(c1)C(=O)N(C)C[C@H](OC)[C@H](C)CN(C(=O)C1CC1)[C@H](C)CO2
    nt, nt, nt, nt, -6, nt

Following part:
The line under a structure holds: MC4R antagonist, ALR H2O2 inh, MC4R ag barr, HDAC3 inh, UUG fidelity, NALP1 inh
21	CCOC(=O)c1cc(NC(=O)c2cc(C)on2)cc(C(=O)OCC)c1
    -1, -18, 31*, 1, -17, 9
22	COC(=O)c1sccc1NC(=O)c1c(C)noc1C
    -2, 0, 2, 5, nt, 24
23	CCCNC(=O)Nc1ccc2c(c1)C(=O)N(C)C[C@@H](OC)[C@H](C)CN(Cc1cccnc1)[C@@H](C)CO2
    nt, nt, nt, nt, 0, nt
24	CNc1sc(C(=O)c2ccccc2F)c(N)c1-c1nc2ccccc2s1
    3, 91*, -1, 1, -1, 25
25	COc1cc(C(=O)C(=O)c2ccc(O)c(OC)c2)ccc1O
    28, 100*, 1, 4, -23, 4
26	COc1cc(C(=O)n2nc(C)cc2C)ccc1O
    5, 95*, 0, 14, -16, 0
27	COc1ccc(C(=O)n2nc(C)cc2C)cc1Br
    0, -10, -1, 1, -17, 14
28	COc1cc(C(=S)N2CCCCC2)ccc1O
    -4, 82*, 0, 6, nt, -7
29	COc1cc(C(=S)N2CCC(C)CC2)ccc1O
    -2, 90*, -1, -2, -37, -17
30	COc1cc(C(=O)O)ccc1O
    1, -3, -1, -11, -17, 10
31	COc1ccc(C(=S)N2CCCC2)cc1Br
    3, 4, -1, 4, -11, -11
32	COc1cc(C(=S)N2CCC(C(N)=O)CC2)ccc1O
    5, 66, -1, -1, -5, -2
33	COc1ccccc1C(=O)Nc1ccc2c(c1)C(=O)N(C)C[C@H](OC)[C@@H](C)CN[C@@H](C)CO2
    nt, nt, nt, nt, 3, nt
34	CCN1[C@H](C(=O)NCc2ccccc2)[C@@H](CO)[C@@H]2Cn3c(ccc(-c4ccccc4)c3=O)[C@@H]21
    nt, nt, nt, nt, -15, nt
35	CC(C)NC(=O)Nc1ccc2c(c1)CC(=O)N([C@@H](C)CO)C[C@@H](C)[C@@H](CN(C)C(=O)Nc1ccc(F)cc1)O2
    nt, nt, nt, nt, 8, nt
36	CCCC#Cc1ccc2c(c1)O[C@@H](CN(C)C(=O)C1CC1)[C@H](C)CN([C@H](C)CO)S2(=O)=O
    nt, nt, nt, nt, 19, nt
37	CCOc1cc(C(=S)N2CCCC2)ccc1O
    6, nt, 0, -4, -19, 7
38	COc1cc(C(C)=O)ccc1O
    9, nt, -1, -2, 0, nt
39	COc1cc(-c2nc3ccccc3nc2-c2ccc(O)c(OC)c2)ccc1O
    1, 99*, -2, -2, -7, -2
40	COc1cc(C(=S)N2CCCC2)ccc1O
    9, 94*, -1, 1, -17, 13
41	COc1cc(-c2nc3ccccn3c2N)ccc1O
    -5, nt, 0, 4, -18, -20
42	COc1cc(-c2cc[n+](C)cc2)ccc1O
    -2, 99*, -1, 5, -18, nt
43	CCCC#Cc1ccc2c(c1)O[C@@H](CN(C)Cc1ccc3c(c1)OCO3)[C@@H](C)CN([C@@H](C)CO)S2(=O)=O
    nt, nt, nt, nt, -20, nt
44	COc1cccc(NC(=O)c2cc(OC)c(OC)c(OC)c2Br)c1
    2, 97*, -2, 3, nt, 30
45	CCOC(=O)c1ccc(NC(=O)c2cc(OC)c(OC)c(OC)c2Br)cc1
    27, -17, -2, -4, nt, 16
46	Nc1nc(-c2ccc3c(c2)CCO3)cs1
    7, 97*, -1, 3, nt, 4
47	O=C(O)c1ccccc1C(=O)N1CCc2c([nH]c3ccccc23)C1C(F)(F)F (stereo not given)
    -5, -10, -1, -6, 2, 39
48	O=C(c1cccc(C(F)(F)F)c1)N1CCc2c([nH]c3ccccc23)C1C(F)(F)F (stereo not given)
    10, nt, 8.8*, 4, nt, -6
49	C[C@@H]1CN([C@@H](C)CO)C(=O)c2cccc(NC(=O)c3ccncc3)c2O[C@H]1CN(C)C(=O)Nc1ccc(F)cc1
    nt, nt, nt, nt, -9, nt
50	O=C(CN1CCC(O)(c2ccc3c(c2)OCO3)CC1)N1CCOCC1
    3, nt, 1, ?, -1, 14
51	OC1(c2ccc3c(c2)OCO3)CCN(Cc2ccccn2)CC1
    -3, 3, -2, -5, 8, 30*
52	C[C@@H]1CN([C@H](C)CO)C(=O)c2cccc(NC(=O)Nc3ccccc3)c2O[C@H]1CN(C)C(=O)Nc1ccccc1
    nt, nt, nt, nt, -5, nt
